Reference: paper PMC6321168, “Comparative Study on Excretive Characterization of Main Components in Herb Pair Notoginseng-Safflower and Single Herbs by LC–MS/MS” (Pharmaceutics, 2018)

What was measured:
[1] = Fecal excretion study in rats after oral NS, SF or CNS (LC–MS/MS); assay type: in vivo; details: rat feces
Description: (§1) The animal room was set at constant temperature of 20 ± 2 °C with humidity of 50 ± 20% and 12/12 h light/dark cycle.
(§2) Eighteen male rats were fasted for 12 h before starting the experiment. The rats were divided into three groups at random (n = 6) and received NS (60 mg/kg), SF (50 mg/kg), and NS (60 mg/kg) + SF (50 mg/kg), respectively, by oral gavage. The rats were placed in separate metabolic cages. The urine samples were collected at 0–2, 2–4, 4–6, 6–8, 8–12, 12–24, 24–36, 36–48, 48–72, 72–96, and 96–120 h. The feces samples were collected at 0–4, 4–8, 8–12, 12–24, 24–36, 36–48, 48–72, 72–96, and 96–120 h. The urine volume was recorded and the dry feces were measured for each collection period. Samples were stored at −80 °C until analysis.
Feces samples were homogenized in ultrapure water (1 g/15 mL), soaked for 30 min, ultrasonically extracted for 30 min and centrifuged at 9000 rpm for 8 min. An aliquot of 200 μL feces water extraction solution was mixed with 10 μL of IS and then extracted three times with water-saturated n-BuOH (150 μL). The upper organic phase was combined and evaporated to dryness using a ZLS-2 vacuum centrifugal concentrator. The residue was treated as the urine sample and a 1-μL aliquot was injected for LC–MS analysis.
(§3) Ultra fast liquid chromatography (UFLC) analysis was performed using a Shimadzu UFLC system (DGU-20A3R Degasser; LC-20AD pump; SIL-20AXR Autosampler; CTO-20AC Column Oven) (Nakagyo-Ku, Koyoto, Japan). […] Because of the different endogenous substances in the urine and feces samples, different elution gradients were used to alleviate the matrix effects for the analytes.
(§4) The mass spectrometric detection was performed on an ABSciex 4500 Qtrap mass spectrometer (ABSciex, Foster City, CA, USA) equipped with a negative electrospray ionization (ESI) interface using multiple reaction monitoring (MRM). The MS parameters were optimized under the selected ion monitoring conditions as follows: curtain gas, 35 psi; ionspray voltage, 4500 V; turbo gas temperature, 450 °C; GS1, 45 psi; GS2, 45 psi. All data were acquired and analyzed by Analyst software (Versions 1.6.2) from ABSciex.
(§5) The accumulative excretion percentage was calculated for each analyte as follows. Excretion at time (t) = [concentration of the analyte (ng/mL) at t] × total urine (or feces) volume (mL) at t. The cumulative excretion up to time t (mg) was expressed as a percent (%) cumulative excretion by dividing by the total amount of the analyte ingested (mg): % Cumulative Excretion = 100 × (Σt excretiont) total ingested.

[2] = Urinary excretion study in rats after oral NS, SF or CNS (LC–MS/MS); assay type: in vivo; details: rat urine; for Accumulative excretion amount / Accumulative excretion percentage: oral NS 60 mg/kg
Description: as §1, §2
An aliquot of 200 μL urine sample was mixed with 10 μL of IS and evaporated to dryness with a ZLS-2 vacuum centrifugal concentrator (Herexi Co., Ltd., Changsha, Hunan, China). The residue was reconstituted in 100 μL of 50% methanol vortexed for 2 min and centrifuged at 12,000 rpm for 15 min. Finally, a 1 μL aliquot was injected for LC–MS analysis.
as §3, §4, §5

- Accumulative excretion percentage ([1]; oral NS 60 mg/kg, 48 h): 2.692±0.846%
SMILES: CC(C)=CCC[C@](C)(O[C@@H]1O[C@H](CO[C@@H]2O[C@H](CO)[C@@H](O)[C@H](O)[C@H]2O)[C@@H](O)[C@H](O)[C@H]1O)[C@H]1CC[C@]2(C)[C@@H]1[C@H](O)C[C@@H]1[C@@]3(C)CC[C@H](O[C@@H]4O[C@H](CO)[C@@H](O)[C@H](O)[C@H]4O[C@@H]4O[C@H](CO)[C@@H](O)[C@H](O)[C@H]4O)C(C)(C)[C@@H]3CC[C@]12C [ginsenoside Rb1]

- Accumulative excretion percentage ([1]; oral NS 60 mg/kg, 36 h): 5.174±1.612%
SMILES: CC(C)=CCC[C@](C)(O[C@@H]1O[C@H](CO)[C@@H](O)[C@H](O)[C@H]1O)[C@H]1CC[C@]2(C)[C@@H]1[C@H](O)C[C@@H]1[C@@]3(C)CC[C@H](O[C@@H]4O[C@H](CO)[C@@H](O)[C@H](O)[C@H]4O[C@@H]4O[C@H](CO)[C@@H](O)[C@H](O)[C@H]4O)C(C)(C)[C@@H]3CC[C@]12C [ginsenoside Rd]

- Excretion amount ([2]; oral CNS 110 mg/kg, 2 h): 0.133 ± 0.062 µg
- Accumulative excretion amount ([1]; oral CNS 110 mg/kg, 72 h): 28.467 ± 7.628 µg
SMILES: CC(C)=CCC[C@](C)(O[C@@H]1O[C@H](CO)[C@@H](O)[C@H](O)[C@H]1O)[C@H]1CC[C@]2(C)[C@@H]1[C@H](O)C[C@@H]1[C@@]3(C)CC[C@H](O)C(C)(C)[C@@H]3[C@@H](O[C@@H]3O[C@H](CO)[C@@H](O)[C@H](O)[C@H]3O[C@@H]3O[C@@H](C)[C@H](O)[C@@H](O)[C@H]3O)C[C@]12C [ginsenoside Re]

- Accumulative excretion amount ([2]; 96 h): 16.480 ± 7.192 µg
- Accumulative excretion percentage ([2]; 96 h): 0.473±0.208%
- Accumulative excretion amount ([2]; 120 h): 16.542 ± 7.264 µg
- Accumulative excretion percentage ([2]; 120 h): 0.473±0.211%
- Accumulative excretion percentage ([1]; oral CNS 110 mg/kg, 12 h): 1.864±0.675%
- Accumulative excretion amount ([1]; oral NS 60 mg/kg, 96 h): 133.700 ± 39.733 µg
- Accumulative excretion amount ([1]; oral NS 60 mg/kg, 120 h): 134.015 ± 39.837 µg
SMILES: CC(C)=CCC[C@](C)(O[C@@H]1O[C@H](CO)[C@@H](O)[C@H](O)[C@H]1O)[C@H]1CC[C@]2(C)[C@@H]1[C@H](O)C[C@@H]1[C@@]3(C)CC[C@H](O)C(C)(C)[C@@H]3[C@@H](O[C@@H]3O[C@H](CO)[C@@H](O)[C@H](O)[C@H]3O)C[C@]12C [ginsenoside Rg1]

Each block holds one molecule with its values, some of them ahead of it.
